The values below are quoted from earlier work in patent publication US6743448B2, “Topical testosterone formulations and associated methods” (priority 2000, dated 2004).

The chains behind the UniProt entries cited, without tags or fusion partners. Residues count along the entry.
UniProt P02768, 25-609: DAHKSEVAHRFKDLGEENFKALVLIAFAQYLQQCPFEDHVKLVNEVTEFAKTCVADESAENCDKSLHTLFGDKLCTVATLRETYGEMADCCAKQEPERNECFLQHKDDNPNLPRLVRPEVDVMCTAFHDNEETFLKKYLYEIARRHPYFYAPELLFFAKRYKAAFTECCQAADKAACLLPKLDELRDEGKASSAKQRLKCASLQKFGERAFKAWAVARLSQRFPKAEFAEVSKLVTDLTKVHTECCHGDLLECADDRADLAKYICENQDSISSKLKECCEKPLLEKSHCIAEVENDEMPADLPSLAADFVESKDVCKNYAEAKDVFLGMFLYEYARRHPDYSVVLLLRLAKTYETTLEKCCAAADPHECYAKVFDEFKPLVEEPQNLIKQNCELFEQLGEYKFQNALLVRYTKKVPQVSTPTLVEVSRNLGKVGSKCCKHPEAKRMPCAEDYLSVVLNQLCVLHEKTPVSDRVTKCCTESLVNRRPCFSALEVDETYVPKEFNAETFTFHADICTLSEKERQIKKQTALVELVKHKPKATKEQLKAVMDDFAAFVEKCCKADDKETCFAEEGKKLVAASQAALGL

The target in this data set is serum albumin (Homo sapiens, UniProt P02768).

Each structure is given as a SMILES string.

For `C[C@]12CC[C@H]3[C@@H](CCC4=CC(=O)CC[C@@]43C)[C@@H]1CC[C@@H]2O` [Testosterone, (17)-17-Hydroxyandrost-4-en-3-one], the Albumin-testosterone binding constant is 36000 L/mol.
